# Assay results: US20060177437A1 (CATCHMABS B V, published 2006)
# T1: chicken egg white lysozyme (chicken, UniProt P00698 19-147)
# T1 sequence: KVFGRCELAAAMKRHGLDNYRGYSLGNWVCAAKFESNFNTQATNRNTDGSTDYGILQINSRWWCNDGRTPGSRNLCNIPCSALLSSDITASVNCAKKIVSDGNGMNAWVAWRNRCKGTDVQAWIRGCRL
# Legend:
# [1] = target: T2, bovine lactoferrin (bovine, UniProt P24627 20-708); assay: iMab on Ni-NTA column, 0.2 mg/ml lactoferrin loaded, NaCl elution, SDS-PAGE
# [2] = target: T2, bovine lactoferrin; assay: phage display selection, then column binding as in Example 10
# [3] = target: T1, chicken egg white lysozyme; assay: affinity chromatography against a Ni-NTA matrix without iMab100 (milk powder)
binder,measurement,setting,value
iMab142-02-0002 (designed binder) MNVKLVEKGGNFVENDDDLKLTCRAEGYTIGPYSMGWFRQAPNDDSTNVSCINMGGGITYYGDSVKERFDIRRDNASNTVTLSMDDLQPEDSAVYSCAADWWDGFTYGSTWYNPSSYDYRGQGTDVTVSSASSAGGGGSYTDIEMNRLGKSHHHHHHG,binding result,[1],binds
iMab142-02-0010 (designed binder) MNVKLVEKGGNFVENDDDLKLTCRAEGHTIGPYSMGWFRQAPNDDSTNVSCINMGGGITYYGDSVKERFDIRRDNASNTVTLSMDDLQPEDSAVYNCAAVMVRTRIPYGSSWYLHPLNTYEYDYRGQGTDVTVSSASSAGGGGSYTDIEMNRLGKSHHHHHHG,binding result,[1],binds
iMab142-02-0011 (designed binder) MNVKLVEKGGNFVENDDDLKLTCRAEGYTIGPYCMGWFRQAPNDDSTNVSCINMGGGITYYGDSVKERFDIRRDNASNTVTLSMDDLQPEDSAVYNCAADPVGSCYADGFDSRGQGTDVTVSSASSAGGGGSYTDIEMNRLGKSHHHHHHG,binding result,[2],binds
iMab100 + VSV + HIS (designed binder) MNVKLVEKGGNFVENDDDLKLTCRAEGYTIGPYCMGWFRQAPNDDSTNVATINMGGGITYYGDSVKERFDIRRDNASNTVTLSMDDLQPEDSAEYNCAGDSTIYASYYECGHGLSTGGYGYDSHYRGQGTDVTVSSASSAGGGGSYTDIEMNRLGKSHHHHHHG,binding result,[3],binds
iMab143-02-0012 (designed binder) MIKVYTDRENYGAVGSQVTLHCSASGYTIGPISFTWRYQPEGDRDAISIFHYNMGDGSIVIHNLDYSDNGSFTCAADPVGSCYADGFDSGNSSQVTLYVFEASSAGGGGSYTDIEMNRLGKSHHHHHHG,binding result,[2],binds
iMab143-02-0013 (designed binder) MIKVYTDRENYGAVGSQVTLHCSASGYTIGPISFTWRYQPEGDRDAISIFHYNMGDGSIVIHNLDYSDNGSFTCAADPRGSCWVGEYDYGNSSQVTLYVFEASSAGGGGSYTDIEMNRLGKSHHHHHHG,binding result,[2],binds
iMab144-02-0014 (designed binder) MLQVDIKPSQGEISVGESKFFLCQASGYTIGPSISWFSPNGEKLNMGSSTLTIYNANIDSAGIYNCATDGPEYGSSCQRTWVDSPDEFDFSEASVNVKIFQASSAGGGGSYTDIEMNRLGKSHHHHHHG,binding result,[2],binds
